Tested on: larvae of the banded cucumber beetle (Diabrotica balteata)
Test: Seed applied insecticides against banded cucumber beetle larvae on potted maize
Assay type: in vivo
Details: maize G 4733, 10 g/kg seed; for Scores of damage caused by D. balteata larvae: 0-6 scale
[1] = Association Polymer, 94% Sand, plant age 3 w
[2] = Association Polymer, 94% Sand, plant age 4 w
[3] = Association Polymer, 98% Sand, plant age 3 w
[4] = Association Polymer, 98% Sand, plant age 4 w
[5] = Association Polymer, Stein Earth, plant age 3 w
[6] = Association Polymer, Stein Earth, plant age 4 w
[7] = PVAc/PVAl, 94% Sand, plant age 3 w
[8] = PVAc/PVAl, 94% Sand, plant age 4 w
[9] = PVAc/PVAl, 98% Sand, plant age 3 w
[10] = PVAc/PVAl, 98% Sand, plant age 4 w
[11] = PVAc/PVAl, Stein Earth, plant age 3 w
[12] = PVAc/PVAl, Stein Earth, plant age 4 w

SMILES: CCOP(=S)(CC)Sc1ccccc1 (stereo not drawn)
- Scores of damage caused by D. balteata larvae [1]: 1.4
- Scores of damage caused by D. balteata larvae [2]: 3.2
- Scores of damage caused by D. balteata larvae [3]: 2.0
- Scores of damage caused by D. balteata larvae [4]: 1.0
- Scores of damage caused by D. balteata larvae [5]: 3.0
- Scores of damage caused by D. balteata larvae [6]: 2.6
- Scores of damage caused by D. balteata larvae [7]: 4.3
- Scores of damage caused by D. balteata larvae [8]: 2.8
- Scores of damage caused by D. balteata larvae [9]: 3.2
- Scores of damage caused by D. balteata larvae [10]: 2.5
- Scores of damage caused by D. balteata larvae [11]: 3.6
- Scores of damage caused by D. balteata larvae [12]: 3.8
- Percent survival of D. balteata larvae [1]: 2%
- Percent survival of D. balteata larvae [2]: 12%
- Percent survival of D. balteata larvae [3]: 0%
- Percent survival of D. balteata larvae [4]: 4%
- Percent survival of D. balteata larvae [5]: 3%
- Percent survival of D. balteata larvae [6]: 0%
- Percent survival of D. balteata larvae [7]: 3%
- Percent survival of D. balteata larvae [8]: 18%
- Percent survival of D. balteata larvae [9]: 1%
- Percent survival of D. balteata larvae [10]: 2%
- Percent survival of D. balteata larvae [11]: 6%
- Percent survival of D. balteata larvae [12]: 5%

Reference: patent EP0302824A2 (priority 1987, dated 1989)
